Results as given in ChEMBL document CHEMBL6134768, “Design, synthesis, and structure-activity relationship studies of 6H-benzo[b]indeno[1,2-d]thiophen-6-one derivatives as DYRK1A/CLK1/CLK4/haspin inhibitors” (RSC Med Chem, 2025).

details: rat, microsomes

CLH, > 500 µL/min/mg:
O=C1c2ccccc2-c2c1sc1ccc(O)cc21
COc1ccc2c(c1)C(=O)c1sc3ccc(O)cc3c1-2
COc1cccc2c1C(=O)c1sc3ccc(O)cc3c1-2
